From PubChem BioAssay AID1778 (Sanford-Burnham Center for Chemical Genomics, 2009)
The list shows a part of the results. Potency and affinity values are given separately. Calls of active or inactive are those of the source. Rule as the data show it: active = inhibition above about 50%; inactive = the rest.

By UniProt entry, the sequences of proteins in these tests, tags left out. Where a name states a change or a piece, a line headed by the entry shows the natural chain unless it says otherwise.
UniProt P41145: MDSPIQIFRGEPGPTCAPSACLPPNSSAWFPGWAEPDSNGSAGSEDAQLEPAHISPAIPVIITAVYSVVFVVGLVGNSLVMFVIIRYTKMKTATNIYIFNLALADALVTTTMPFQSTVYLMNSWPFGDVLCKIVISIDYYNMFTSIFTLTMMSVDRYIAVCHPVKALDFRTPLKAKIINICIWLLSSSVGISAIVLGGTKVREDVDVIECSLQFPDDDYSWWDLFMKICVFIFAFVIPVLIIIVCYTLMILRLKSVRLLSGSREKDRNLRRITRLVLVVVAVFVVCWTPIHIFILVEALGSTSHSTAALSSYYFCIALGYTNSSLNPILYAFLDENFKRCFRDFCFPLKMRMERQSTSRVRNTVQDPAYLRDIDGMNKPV

biological target: Kappa-type opioid receptor (Homo sapiens) (UniProt P41145); assay: kappa opioid receptor blockers – cell-based, luminescence, uHTS (AID 1778); details: KOR beta-arrestin recruitment, antagonist mode, at 10 µM, stronger effect = higher value

SMILES | inhibition
Cc1ccc(SCc2nc3ccccc3n2CC(=O)Nc2ccc(Cl)cc2)cc1 | inactive: -2.5%
CCCCNc1nc2ccccc2n1CC(=O)Nc1ccc2c(c1)OCCO2 | inactive: 5.3%
CN1CCC2(CC1)Nc1nc(SCc3ccc(Cl)cc3)nn1C1=C2CN(C)CC1 | inactive: -22.2%
COc1ccc(OCC(O)Cn2c(=N)n(CCN3CCOCC3)c3ccccc32)cc1 (configuration not stated) | inactive: 15.7%
CN(C)CCn1c(NC(=O)c2ccc(Cl)cc2)nc2ccccc21 | inactive: -59.6%
O=C(Cn1c(C(F)(F)F)nc2ccccc21)Nc1ccccc1C(=O)O | inactive: 24.7%
Clc1n[nH]nc1-c1nn[nH][15n]1 | inactive: 2%
COc1ccc(/C=N/NC(=O)Cn2c(Cc3ccc(OC)c(OC)c3)nc3ccccc32)cc1OC | inactive: 39%
Cc1ccc(CSc2nc3ccncc3n2CC(=O)Nc2cc(C)cc(C)c2)cc1 | inactive: 12.7%
NNC(=O)Cn1c(-c2nonc2N)nc2ccccc21 | inactive: -4.3%
Cc1ccc(CNC(=O)CCCCCNC(=O)N2CCn3c2nc2ccccc23)cc1 | inactive: -20%
S=C(Nc1ccccc1)N1CCn2c(nc3ccccc32)C1 | inactive: 10.4%
O=C(Cn1c(CSc2ccccc2)nc2ccccc21)Nc1ccccc1 | inactive: -6.6%
Cc1cc(C)cc(NC(=O)Cn2c(-c3ccccc3Cl)nc3ccccc32)c1 | inactive: 19.5%
CC(C)(C)C(=O)NC(Sc1ncccn1)C(Cl)(Cl)Cl (configuration not stated) | inactive: 15%
CCCC(=O)Nc1nnc(/C=C/c2ccccc2)s1 | inactive: -8.8%
Cn1c(=O)c2ncn(CC(=O)Nc3cc(C(F)(F)F)ccc3N3CCOCC3)c2n(C)c1=O | inactive: 16%
Cn1c(=O)c2c(ncn2CC(=O)Nc2nnc(Cc3ccccc3)s2)n(C)c1=O | inactive: 5.5%
COc1cccc(NC(=S)N2CCn3c(nc4ccccc43)C2)c1 | inactive: -4.3%
CC(C)C[C@H](NC(=O)N1CCn2c1nc1ccccc12)C(=O)NCc1ccc2c(c1)OCO2 | inactive: 0.9%
Cc1ccc(OCC(O)Cn2c(=N)n(CCN3CCCCC3)c3ccccc32)cc1 (configuration not stated) | inactive: 16.5%
N=c1n(CCN2CCCCC2)c2ccccc2n1CC(O)c1cccc(Br)c1 (configuration not stated) | inactive: 3.5%
CCN(CC)CCn1c(NCc2ccco2)nc2ccccc21 | inactive: -6.7%
Cc1nc2ccccc2n1CC(=O)N/N=C\C=C\c1ccccc1 | inactive: 13.3%

SMILES | inhibition
CCc1cccc(NC(=O)Cn2c3[n+](c4ccc(C(F)(F)F)cc42)CCCCC3)c1 | inactive: -9.1%
Cn1c(=O)n(Cc2ccccc2F)c(=O)c2c1nc1n2CCN1Cc1ccco1 | inactive: -9.7%
Cn1c(=O)c2c(nc(N3CCCCC3)n2CCNC2=NCCC2)n(C)c1=O | inactive: 34.7%
CCN(CC)c1ccc(CNc2nc3ccccc3n2CCN2CCCCC2)cc1 | inactive: -15.9%
Cn1c(=O)c2ncn(CC(=O)N/N=C/C=C/c3ccccc3)c2n(C)c1=O | inactive: -9.4%
COc1ccccc1C(=O)Nc1ccc2c(c1)nc1n2CCN(Cc2ccccc2)C1 | inactive: -20.6%
Cc1ccc(NC(=O)C2CC(=O)Nc3nc4ccccc4n32)c(C)c1 (configuration not stated) | inactive: 15.3%
O=C(CCNC(=O)N1CCn2c1nc1ccccc12)NCc1ccccc1 | inactive: -3.4%
COc1ccc(N(C(=O)Cn2cnc3ccccc32)C(C(=O)NC2CCCCC2)c2ccccc2)cc1 (configuration not stated) | inactive: 19.9%
Cc1ccc2c(c1)C1CN(C)CCC1N2C(=O)c1cccc(S(=O)(=O)N2CC(C)CC(C)C2)c1 (configuration not stated) | inactive: -27.8%
CN(C(=O)Cc1ccc(Cl)c(Cl)c1)[C@@H]1CCCC[C@H]1N1CCCC1 | inactive: -21%
CC(C)/C=N\N=C(\N)N[N+](=O)[O-] | inactive: -0.7%
COc1ccc(CCNC(=O)CCCCCNC(=O)N2CCn3c2nc2ccccc23)cc1OC | inactive: 3.2%
O=C(Nc1nc2ccccc2n1CCN1CCOCC1)c1ccc(COc2ccccc2Br)o1 | inactive: -27.3%
O=C(Cn1c(CO)nc2ccccc21)NCc1ccc2c(c1)OCO2 | inactive: 24.8%
Cc1cccc(N2CCN(C(=O)Cn3cnc4c3c(=O)n(C)c(=O)n4C)CC2)c1C | inactive: 27.6%
O=C(Cn1c(COc2ccc(Cl)cc2)nc2ccccc21)NCC(F)(F)F | inactive: 7.8%
O=[As](O)(c1ccccc1Br)c1ccccc1Br | inactive: 15.2%
O=C(Nc1nc2ccccc2n1CCN1CCCCC1)c1ccc(Cl)cc1 | inactive: -23.7%
CC1CN(C(=O)Cn2c(C(F)(F)F)nc3ccccc32)CC(C)O1 (configuration not stated) | inactive: 28.9%
Fc1ccc(Cn2nnnc2CN2CCC(n3nnc4cc(C(F)(F)F)ccc43)CC2)cc1 | inactive: 16.4%
CCOC(=O)Cn1c(=O)c2c(nc3n2CCN3c2ccc(C)cc2)n(C)c1=O | inactive: 13.3%
CN(C)CCCNC(=S)N1CCn2c(nc3ccccc32)C1 | inactive: 27.7%
